Laboratory results as given in patent US6579696B1, “Polymyxin B conjugates” (priority 1992, dated 2003).

Tested on: E. coli 0111:B4

`CC(C)C[C@H](NC(=O)[C@H](Cc1ccccc1)NC(=O)[C@H](CCCNC(=N)N)NC(=O)[C@H](CCCCN)NC(=O)[C@H](CCC(N)=O)NC(=O)[C@H](C)NC(=O)[C@H](CCCCN)NC(=O)[C@H](Cc1c[nH]c2ccccc12)NC(=O)[C@H](CCCCN)NC(=O)[C@@H](N)CSC1CC(=O)N(CC2CCC(C(=O)NCCCCNC(=O)CCCC[C@@H]3SC[C@@H]4NC(=O)N[C@@H]43)CC2)C1=O)C(=O)N[C@@H](CCCCN)C(=O)O` (stereo partly shown) [C90-99-Cys-Biotin] showed an MIC of over 108 µg/mL.
